Biological target: T1, PDE III (Homo sapiens, UniProt Q14432)
T1 construct: PDE III isolated from human platelets; from tissue; host or cells: human platelets
Experiment: inhibition of PDE III isolated from human platelets
Assay type: biochemical
Description: The specific inhibition of phosphodiesterase IV (PDE IV=high-affinity cAMP-PDE which cannot be inhibited by cGMP, rolipram-sensitive) is regarded as particularly indicative of an expected bronchospasmolytic and/or antiinflammatory effect. The specificity of the inhibition is moreover described by the ratio [IC50 ]PDE-III /[IC50 ]PDE-IV (PDE III=high-affinity cAMP-PDE which can be inhibited by cGMP) [H. Hidaka et al., Adv. Cycl. Nucl. Res. 13, 145 (1984); TiPS 5, 237 (1984); R. Weishaar et al., J. Med. Chem. 28, (1985); S. A. Harrison et al., Molec. Pharmac. 29, 506 (1986); J. Klein-Tebbe et al., Allergologie 12, 12 (1989); C. Schudt et al., Allergologie 12, 12, (1989); C. Schudt et al., Agents and Action 1991 in press; C. D. Nicholson et al., TiPS 12, (1), 19 (1991)].
For this reason, the PDE inhibition by the compounds according to the invention was determined on a PDE III isolated from human platelets and on PDE IV isolated from human polymorphonuclear neutrophilic cells (PMNs) and from the dog trachea. Phosphodiesterases III and IV are isolated by chromatography as described by Polson et al., Biochem. Pharmacol. 31, 3403-3406 (1982).
The substances are dissolved and diluted further in DMSO. 2.1 μl samples from a series of solutions diluted up to 100 fold are mixed with 212 μl of reaction mixture. […]

Protein sequences, listed by entry. Tags and fused reporters are not part of them. Lines headed by an entry give the natural chain unless they say otherwise; changes in a name come on top.
UniProt Q14432: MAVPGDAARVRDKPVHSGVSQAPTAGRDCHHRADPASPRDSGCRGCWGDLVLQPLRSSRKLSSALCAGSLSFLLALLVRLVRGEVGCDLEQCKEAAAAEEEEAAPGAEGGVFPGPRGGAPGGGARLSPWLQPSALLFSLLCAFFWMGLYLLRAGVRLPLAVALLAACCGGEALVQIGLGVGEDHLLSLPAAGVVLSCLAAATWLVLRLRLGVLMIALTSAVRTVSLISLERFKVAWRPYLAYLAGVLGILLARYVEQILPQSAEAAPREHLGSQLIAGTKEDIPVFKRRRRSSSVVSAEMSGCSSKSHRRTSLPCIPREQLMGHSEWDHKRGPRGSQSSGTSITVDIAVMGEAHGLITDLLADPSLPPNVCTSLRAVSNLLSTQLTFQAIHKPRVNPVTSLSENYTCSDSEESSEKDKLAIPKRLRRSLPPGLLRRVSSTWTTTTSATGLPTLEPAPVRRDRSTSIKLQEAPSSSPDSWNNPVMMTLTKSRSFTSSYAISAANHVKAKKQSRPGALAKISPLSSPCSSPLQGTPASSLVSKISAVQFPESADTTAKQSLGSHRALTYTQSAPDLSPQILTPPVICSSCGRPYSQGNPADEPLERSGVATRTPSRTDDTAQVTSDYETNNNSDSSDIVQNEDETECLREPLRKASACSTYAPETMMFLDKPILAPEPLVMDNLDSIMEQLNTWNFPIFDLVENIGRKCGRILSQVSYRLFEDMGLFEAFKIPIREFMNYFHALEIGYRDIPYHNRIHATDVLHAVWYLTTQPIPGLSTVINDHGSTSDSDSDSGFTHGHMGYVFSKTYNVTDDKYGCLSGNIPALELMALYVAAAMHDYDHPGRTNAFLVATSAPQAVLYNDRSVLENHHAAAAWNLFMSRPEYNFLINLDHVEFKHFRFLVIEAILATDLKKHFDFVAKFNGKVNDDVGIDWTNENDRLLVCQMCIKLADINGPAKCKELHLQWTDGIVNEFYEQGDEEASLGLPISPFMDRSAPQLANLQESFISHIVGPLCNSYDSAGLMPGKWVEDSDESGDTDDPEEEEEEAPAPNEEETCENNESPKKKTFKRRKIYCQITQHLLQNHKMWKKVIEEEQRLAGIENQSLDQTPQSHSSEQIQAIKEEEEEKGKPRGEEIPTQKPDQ

Cn1c(=O)c2[nH]cnc2n(C)c1=O [Theophylline, reference compound]
IC50: 151 µM
